{"source": "patent US12410143B2", "about": "“Therapeutic inhibitors of the reverse mode of ATP synthase” (priority 2017, dated 2025)", "key": {"NCI-60 cancer cell lines": {"tested_on": "NCI-60 cancer cell lines", "experiment": "NCI-60 one-dose in vitro assay", "conditions": "10 μM"}, "F1F0 ATP hydrolase": {"target": "F1F0 ATP hydrolase (Bos taurus, UniProt P00829+P19483)", "conditions": "stereoisomers of 19a [5-6]; cited from earlier work"}}}
{"smiles": "N#Cc1cccc(C(=O)N=C(Nc2ccc(Cl)cc2)N[C@H](Cn2ccnc2)c2ccc(Cl)cc2Cl)c1", "values": [{"measurement": "anti-cancer activity (NCI one-dose assay)", "setting": "NCI-60 cancer cell lines", "result": "exerted anti-cancer activity"}, {"measurement": "inhibits F1F0-ATP hydrolysis", "setting": "F1F0 ATP hydrolase", "result": "inhibits F1F0-ATP hydrolysis"}]}
